Laboratory results reported in publication PMC7042484 (Redox Biology, 2020).

Target: T1, human NOX4 (Homo sapiens, UniProt Q9NPH5)
T1 sequence (Q9NPH5 1-578): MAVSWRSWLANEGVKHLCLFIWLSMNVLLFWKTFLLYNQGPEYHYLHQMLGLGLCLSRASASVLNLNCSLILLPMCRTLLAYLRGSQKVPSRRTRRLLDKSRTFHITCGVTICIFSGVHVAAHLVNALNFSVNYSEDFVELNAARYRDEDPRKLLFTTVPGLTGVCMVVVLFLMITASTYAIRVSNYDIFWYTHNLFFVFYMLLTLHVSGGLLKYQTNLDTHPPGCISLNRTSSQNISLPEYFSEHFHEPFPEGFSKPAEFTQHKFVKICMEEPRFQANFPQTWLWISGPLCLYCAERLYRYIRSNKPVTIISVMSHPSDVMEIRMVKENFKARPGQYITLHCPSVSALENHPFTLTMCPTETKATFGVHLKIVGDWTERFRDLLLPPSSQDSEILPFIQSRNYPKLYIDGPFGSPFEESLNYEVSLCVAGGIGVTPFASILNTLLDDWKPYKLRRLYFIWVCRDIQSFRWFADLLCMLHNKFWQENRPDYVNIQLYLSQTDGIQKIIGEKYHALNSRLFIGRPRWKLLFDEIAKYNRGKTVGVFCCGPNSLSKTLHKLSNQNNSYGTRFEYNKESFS
T1 sequence (P13498 2-195 partner limits assumed): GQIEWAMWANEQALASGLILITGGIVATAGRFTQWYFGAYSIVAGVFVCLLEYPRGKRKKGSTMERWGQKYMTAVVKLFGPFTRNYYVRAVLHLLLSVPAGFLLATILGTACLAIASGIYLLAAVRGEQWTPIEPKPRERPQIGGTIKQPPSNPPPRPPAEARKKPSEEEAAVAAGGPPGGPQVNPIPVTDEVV
Experiment: Amplex red/peroxidase assay on NOX4 membranes
Assay type: biochemical

With `c1ccc2c(c1)[I+]c1ccccc1-2` [DPI, Diphenylene iodonium] the IC50 was 2260 ± 1180 nM.
